Source: patent US12061183B2, “Methods of assessing suitability of use of pharmaceutical compositions of albumin and poorly water soluble drug” (Abraxis BioScience, LLC, priority 2015, dated 2024)

Test: Percentage of albumin monomers, dimers, oligomers and polymers in fractions of the rapamycin/albumin nanoparticle composition
Format: physicochemical
Conditions: for Dimer: percentage of albumin dimers in 4% HA solution; for Monomer: percentage of albumin monomers in 4% HA solution; for Unnamed Oligomer: percentage of albumin oligomers in 4% HA solution; for Polymer: percentage of albumin polymers in 4% HA solution
Protocol: A composition comprising nanoparticles comprising rapamycin and albumin was prepared and reconstituted as described above to form a reconstituted suspension. A sample of the reconstituted suspension was ultracentrifuged as described above to form a supernatant and a pellet containing the nanoparticles.

Substance | Dimer | Monomer | Unnamed Oligomer | Polymer
4% HA Stock Solution | 1.9% | 95.2% | 0.3% | 2.5%
4% HA System suitability | 1.9% | 97.2% | 0.3% | 0.7%
